US10751335B2 (priority 2016, dated 2020)

Sequences of proteins named here, by UniProt entry; tags and fusion partners are left off.
UniProt P35372, whole entry, looked up: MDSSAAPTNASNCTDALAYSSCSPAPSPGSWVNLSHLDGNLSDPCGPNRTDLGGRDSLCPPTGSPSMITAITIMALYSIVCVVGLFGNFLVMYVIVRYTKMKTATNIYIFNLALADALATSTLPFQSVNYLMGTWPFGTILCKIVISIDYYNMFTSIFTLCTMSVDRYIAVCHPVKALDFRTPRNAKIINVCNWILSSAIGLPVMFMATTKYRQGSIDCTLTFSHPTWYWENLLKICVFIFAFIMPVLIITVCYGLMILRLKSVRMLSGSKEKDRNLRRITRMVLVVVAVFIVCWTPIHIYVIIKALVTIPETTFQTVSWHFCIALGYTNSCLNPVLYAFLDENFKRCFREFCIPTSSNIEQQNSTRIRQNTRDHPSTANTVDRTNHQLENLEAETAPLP
UniProt P42866, whole entry, looked up: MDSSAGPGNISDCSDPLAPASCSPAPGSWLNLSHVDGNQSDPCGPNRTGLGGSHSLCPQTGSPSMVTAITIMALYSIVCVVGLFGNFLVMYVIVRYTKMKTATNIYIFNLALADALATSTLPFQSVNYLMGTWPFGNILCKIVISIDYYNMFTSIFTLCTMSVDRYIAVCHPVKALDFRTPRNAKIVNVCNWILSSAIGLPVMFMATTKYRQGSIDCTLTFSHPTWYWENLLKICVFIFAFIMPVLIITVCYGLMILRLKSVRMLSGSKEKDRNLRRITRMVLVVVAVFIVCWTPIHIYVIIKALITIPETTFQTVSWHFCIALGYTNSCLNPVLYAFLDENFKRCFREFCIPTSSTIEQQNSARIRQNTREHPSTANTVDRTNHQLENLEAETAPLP

Experiments:
[1] = target: human MOR (Homo sapiens (Human), UniProt P35372); settings: normalized to DAMGO
[2] = target: MOR (Mus musculus (Mouse), UniProt P42866); settings: 1 μM

C[C@@H](NC(=O)[C@@H](N)Cc1ccc(O)cc1)C(=O)NCC(=O)N(C)[C@@H](Cc1ccccc1)C(=O)NCCO
G/βarr2 bias factor [1]: 1 | agonist-induced MOR phosphorylation at serine 375 [2]: induce phosphorylation
